Experimental data: PubChem BioAssay (NCI)
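The compound was tested at five concentrations on cells cultured in 96-well plates, with a 48-hour exposure period. Abbreviation: GI50, concentration required for 50% inhibition of growth. TGI: total growth inhibition.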

Tests used:
Assay in all cases: NCI tumour cell line growth inhibition, 48 h
DMS 114 small cell lung = tested on: DMS 114 small cell lung
DLD-1 colon = tested on: DLD-1 colon
HOP-18 NSCLC = tested on: HOP-18 NSCLC
LXFL 529 NSCLC = tested on: LXFL 529 NSCLC
SNB-78 CNS = tested on: SNB-78 CNS
M19-MEL melanoma = tested on: M19-MEL melanoma

SMILES: Nc1ccccc1Nc1ccccc1C(=O)[O-].Nc1ccccc1Nc1ccccc1C(=O)[O-].[Cu+2]
- GI50 (DMS 114 small cell lung): > 100 µM
- TGI (DMS 114 small cell lung): > 100 µM
- GI50 (DLD-1 colon): > 100 µM
- TGI (DLD-1 colon): > 100 µM
- GI50 (HOP-18 NSCLC): > 100 µM
- TGI (HOP-18 NSCLC): > 100 µM
- GI50 (LXFL 529 NSCLC): > 100 µM
- TGI (LXFL 529 NSCLC): > 100 µM
- GI50 (SNB-78 CNS): > 100 µM
- TGI (SNB-78 CNS): > 100 µM
- GI50 (M19-MEL melanoma): 18.1 µM
- TGI (M19-MEL melanoma): 44.5 µM
